By IC50 is commonly meant the point on the concentration scale where inhibition reaches its midpoint.

Common to all, as to assay: biochemical
The target of one assay is DRB1*0802 (Homo sapiens, UniProt P01903+P01911, A100R/A103L/A169T/F76Y/H45Y/I96F/K41T/L162R/M171V/P40S/Q125H/Q178H/Q39Y/Q99D/R218S/R42G/S66Y/V115G/W38E).
The next assay concerns the target HLA-A3.2 (A*0301) (Homo sapiens, UniProt P04439). It is filed as binding.
A further assay deals with HLA-A11 (A*1101) (Homo sapiens, UniProt P04439, A114D/D185E/E176A/F33Y/L180Q/S129P/T187R). The class given is binding.
For the next assay, the target named is A*3301 (Homo sapiens, UniProt P04439, A270S/D185E/E176V/E277Q/E87N/F33T/G231S/H175R/I121M/I218V/I322F/K168Q/K210R/L300P/L318F/M331R/P217A/Q86R/Q94H/R138Q/T323A/T345S/T97I/V358M/Y195H). It is filed as binding.
The next assay has as its target A*6801 (Homo sapiens, UniProt P04439, A269V/D185E/E176V/E277Q/E87N/F33Y/G231S/I121M/I166T/I218V/L180W/L300P/L318F/N151K/P208A/P217A/Q86R/R169H/T345S). The class given is binding.

With `CC[C@H](C)[C@H](NC(=O)[C@@H](NC(=O)[C@H](CCC(N)=O)NC(=O)CN)C(C)C)C(=O)N[C@H](C(=O)N[C@@H](CS)C(=O)N1CCC[C@H]1C(=O)N[C@@H](C)C(=O)N[C@@H](CO)C(=O)N[C@H](C(=O)N[C@@H](CO)C(=O)N[C@@H](CO)C(=O)N[C@@H](CC(N)=O)C(=O)N[C@@H](CCC(=O)O)C(=O)N[C@H](C(=O)O)C(C)C)C(C)C)C(C)C` [Peptide 90.0016], on DRB1*0802, the IC50 came out at 13100 nM.
Take `CC(C)C[C@H](NC(=O)[C@@H](NC(=O)[C@@H](N)[C@@H](C)O)[C@@H](C)O)C(=O)N[C@@H](CCC(=O)O)C(=O)N[C@@H](CCC(N)=O)C(=O)N[C@@H](CCC(N)=O)C(=O)N[C@@H](Cc1ccc(O)cc1)C(=O)N[C@@H](CC(N)=O)C(=O)N[C@@H](CCCCN)C(=O)O` [Peptide 78.0273]: the IC50 on HLA-A3.2 (A*0301) was 816 nM; against HLA-A11 (A*1101) it was 26 nM; on A*3301, 1350 nM; on A*6801, 203 nM.
Consider `CC(C)C[C@H](NC(=O)[C@H](C)NC(=O)[C@@H](N)Cc1c[nH]cn1)C(=O)N[C@@H](Cc1ccccc1)C(=O)N[C@H](C(=O)N[C@@H](C)C(=O)N[C@@H](CCC(N)=O)C(=O)N[C@@H](CCC(=O)O)C(=O)N[C@@H](C)C(=O)N[C@@H](CCCCN)C(=O)N[C@@H](CCC(N)=O)C(=O)N[C@@H](Cc1c[nH]cn1)C(=O)N[C@@H](CCCNC(=N)N)C(=O)N[C@@H](CC(=O)O)C(=O)N[C@@H](C)C(=O)O)[C@@H](C)O` [Peptide 89.0001], for which the IC50 at DRB1*0802 amounted to 14200 nM.
The same measure, in the same setting: the same measure for `CC(C)C[C@H](NC(=O)[C@@H](NC(=O)[C@H](Cc1c[nH]cn1)NC(=O)[C@H](CC(C)C)NC(=O)[C@@H](NC(=O)[C@H](CCC(N)=O)NC(=O)[C@H](C)NC(=O)[C@H](CC(=O)O)NC(=O)[C@H](CC(N)=O)NC(=O)[C@H](Cc1c[nH]cn1)NC(=O)[C@@H](NC(=O)[C@H](CCC(=O)O)NC(=O)[C@H](CCC(N)=O)NC(=O)[C@H](C)N)C(C)C)C(C)C)C(C)C)C(=O)N[C@@H](CCCCN)C(=O)O` [Peptide 90.0047]: 9340 nM.
On the same count and under the same terms, to `CC(C)C[C@H](NC(=O)[C@H](CC(C)C)NC(=O)[C@H](CS)NC(=O)[C@@H](NC(=O)[C@@H](N)CCCNC(=N)N)C(C)C)C(=O)N[C@@H](Cc1ccccc1)C(=O)N[C@@H](Cc1ccc(O)cc1)C(=O)N[C@@H](CO)C(=O)N[C@@H](CCCCN)C(=O)N[C@H](C(=O)N[C@@H](CCCNC(=N)N)C(=O)N[C@@H](CCCCN)C(=O)N[C@@H](Cc1ccc(O)cc1)C(=O)N[C@@H](CCCNC(=N)N)C(=O)N[C@@H](Cc1ccc(O)cc1)C(=O)O)C(C)C` [Peptide 1543.54] belongs 269 nM.
Take `CC(C)C[C@H](NC(=O)[C@H](C)NC(=O)[C@H](C)NC(=O)[C@H](C)NC(=O)[C@@H](NC(=O)[C@@H](N)CO)[C@@H](C)O)C(=O)N[C@@H](Cc1ccc(O)cc1)C(=O)N[C@@H](Cc1c[nH]c2ccccc12)C(=O)N[C@@H](Cc1ccc(O)cc1)C(=O)N[C@@H](CCCCN)C(=O)O` [Peptide 1587.06]: the midpoint of inhibition against A*3301, the IC50, lay at 138 nM.
The molecule `CC[C@H](C)[C@H](NC(=O)[C@H](Cc1c[nH]c2ccccc12)NC(=O)[C@H](CCC(=O)O)NC(=O)[C@@H]1CCCN1)C(=O)N[C@@H](CC(=O)O)C(=O)N[C@@H](CCCNC(=N)N)C(=O)N[C@@H](CC(C)C)C(=O)N[C@H](C(=O)N[C@H](C(=O)N[C@@H](CC(C)C)C(=O)N[C@@H](CCC(N)=O)C(=O)N[C@@H](Cc1c[nH]cn1)C(=O)N[C@@H](CO)C(=O)N[C@@H](Cc1ccccc1)C(=O)N[C@@H](CC(N)=O)C(=O)O)C(C)C)[C@@H](C)O` [Peptide 89.0070] gave an IC50 on DRB1*0802 of 3510 nM.
For the molecule `CC[C@H](C)[C@H](NC(=O)[C@H](Cc1c[nH]c2ccccc12)NC(=O)[C@H](CCC(=O)O)NC(=O)[C@@H]1CCCN1C(=O)[C@@H](N)[C@@H](C)O)C(=O)N[C@@H](CCC(=O)O)C(=O)N[C@@H](CCCNC(=N)N)C(=O)N[C@@H](CCC(N)=O)C(=O)N[C@H](C(=O)N[C@H](C(=O)N[C@@H](CC(C)C)C(=O)N[C@@H](CCC(N)=O)C(=O)N[C@@H](Cc1c[nH]cn1)C(=O)N[C@@H](CO)C(=O)N[C@@H](Cc1ccccc1)C(=O)O)C(C)C)[C@@H](C)O` [Peptide 89.0048], the IC50 on DRB1*0802 worked out at 2360 nM.

Source of the values: patent publication US9340577B2, “HLA binding motifs and peptides and their uses” (priority 1992, dated 2016).
